In patent publication US20230313313A1, “BIOMARKERS FOR CANCER THERAPY USING MDM2 ANTAGONISTS” (OTSUKA PHARMACEUTICAL CO., LTD., priority 2020, published 2023):

Experiments:
SJSA-1 [1] = assay: Protocol B: SJSA-1 CellTiter-Glo Luminescent Cell Viability Assay; details: Homo sapiens, SJSA-1, 72 h, read-out: SJSA1 IC50 (Protocol B)
SJSA-1 [2] = assay: Protocol A: SJSA-1 growth inhibition, sulphorhodamine B (SRB) method; details: Homo sapiens, SJSA-1, 72 h, read-out: SJSA-1 IC50 (Protocol A)

SMILES	IC50 (SJSA-1 [1])	IC50 (SJSA-1 [2])
CC(C)(O)c1cc(F)c2c(c1)C(=O)N(Cc1ccc(Cl)cc1)[C@@]2(OCC1(CO)CC1)c1ccc(Cl)cc1 [Example 2, (3R)-3-(4-chlorophenyl)-2-[(4-chlorophenyl)methyl]-4-fluoro-3-{[1-(hydroxymethyl)cyclopropyl]methoxy}-6-(2-hydroxypropan-2-yl)-2,3-dihydro-1H-isoindol-1-one]	460 nM	330 nM
CC[C@@](O)(c1cc(F)c2c(c1)C(=O)N(Cc1ccc(C#N)cc1)[C@@]2(O[C@H]1C[C@@H](O)C1)c1ccc(Cl)cc1)C1CCN(C)CC1 [Example 130, 4-{[(1R)-1-(4-chlorophenyl)-7-fluoro-5-[(1S)-1-hydroxy-1-(1-methylpiperidin-4-yl)propyl]-3-oxo-1-[cis-3-hydroxycyclobutoxy]-2,3-dihydro-1H-isoindol-2-yl]methyl}benzonitrile]	230 nM	
